Laboratory results taken from patent publication US4614714A, “Use of novel L-glutamic acid oxidase” (priority 1982, dated 1986).

System: N[C@@H](CCC(=O)O)C(=O)O
Test: purified protein, by the assay type
Conditions: other: pH 7.4, 30.0 °C

## novel L-glutamic acid oxidase (Streptomyces sp.)
  Km: 210 µM
